These results are taken from BindingDB's records for doi:10.7270/Q2CC0Z29 (Ambit Biosciences, 2008).

Sequences of proteins named here, by UniProt entry; tags and fusion partners are left off. A line that says so, or that is headed by a name, gives the form on record, which may keep a tag or linker.
UniProt Q15349, as listed by the source: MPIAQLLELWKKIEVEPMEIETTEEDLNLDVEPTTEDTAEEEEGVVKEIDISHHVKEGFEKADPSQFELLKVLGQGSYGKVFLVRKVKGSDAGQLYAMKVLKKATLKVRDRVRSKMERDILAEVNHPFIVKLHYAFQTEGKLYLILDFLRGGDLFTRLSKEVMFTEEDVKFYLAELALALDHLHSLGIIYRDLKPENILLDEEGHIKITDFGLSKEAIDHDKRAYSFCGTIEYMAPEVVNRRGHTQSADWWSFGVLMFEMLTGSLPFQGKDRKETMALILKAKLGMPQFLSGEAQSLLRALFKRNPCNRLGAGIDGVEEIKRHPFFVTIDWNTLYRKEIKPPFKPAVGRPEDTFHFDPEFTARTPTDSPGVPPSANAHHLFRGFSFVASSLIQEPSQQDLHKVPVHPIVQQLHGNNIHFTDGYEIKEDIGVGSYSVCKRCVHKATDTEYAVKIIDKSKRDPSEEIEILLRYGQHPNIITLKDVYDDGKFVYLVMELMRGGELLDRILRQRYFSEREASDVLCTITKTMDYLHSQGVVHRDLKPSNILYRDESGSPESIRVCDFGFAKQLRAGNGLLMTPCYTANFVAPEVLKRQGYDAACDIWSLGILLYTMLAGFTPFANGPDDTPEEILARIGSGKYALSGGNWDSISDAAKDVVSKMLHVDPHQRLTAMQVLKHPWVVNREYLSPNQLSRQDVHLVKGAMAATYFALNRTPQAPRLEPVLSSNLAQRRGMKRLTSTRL

For the assay, the target named is Isoform 3 of Ribosomal protein S6 kinase alpha-2 (3) (Homo sapiens, UniProt Q15349). As to the kind of experiment: PubChem AID 1433.

As a reminder, the Ki is the equilibrium dissociation constant of an inhibitor or competing ligand from its target. A higher Ki goes with weaker binding.

`CCN1CCN(Cc2ccc(NC(=O)Nc3ccc(Oc4cc(NC)ncn4)cc3)cc2C(F)(F)F)CC1` showed a Ki of 1100 µM.
